Only a part is listed here, and it is no random draw. The source made the active and inactive calls. Rule for the calls: active = inhibition of at least 40% at 20 µM; inactive = the rest.
biological target: Apoptotic protease-activating factor 1 (Homo sapiens) (UniProt O14727); test: blockers of Apaf-1-driven caspase-3 activation – biochemical, DEVD-Rh110 fluorescence, uHTS, primary screen (AID 489030); conditions: reconstituted apoptosome caspase-3 activity, at 20 µM, stronger effect = higher value;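 note: plate controls were DMSO wells for no effect and DEVD-CHO caspase inhibitor wells for full effect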
Outline: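 Material: reconstituted apoptosome with Apaf-1, cytochrome c, caspase-9, procaspase-3, dATP / Buffer or medium: pH 7.5 Hepes buffer with CHAPS, BSA, DTT / Also added: cytochrome c with DEVD-Rh110 / Schedule: compound with Apaf-1, dATP, procaspase-3 30 min, then 50 min reaction, room temperature / Technique: rhodamine 110 fluorescence at Ex 480/Em 540 nm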

The chains behind the UniProt entries cited, without tags or fusion partners.
UniProt O14727, whole entry: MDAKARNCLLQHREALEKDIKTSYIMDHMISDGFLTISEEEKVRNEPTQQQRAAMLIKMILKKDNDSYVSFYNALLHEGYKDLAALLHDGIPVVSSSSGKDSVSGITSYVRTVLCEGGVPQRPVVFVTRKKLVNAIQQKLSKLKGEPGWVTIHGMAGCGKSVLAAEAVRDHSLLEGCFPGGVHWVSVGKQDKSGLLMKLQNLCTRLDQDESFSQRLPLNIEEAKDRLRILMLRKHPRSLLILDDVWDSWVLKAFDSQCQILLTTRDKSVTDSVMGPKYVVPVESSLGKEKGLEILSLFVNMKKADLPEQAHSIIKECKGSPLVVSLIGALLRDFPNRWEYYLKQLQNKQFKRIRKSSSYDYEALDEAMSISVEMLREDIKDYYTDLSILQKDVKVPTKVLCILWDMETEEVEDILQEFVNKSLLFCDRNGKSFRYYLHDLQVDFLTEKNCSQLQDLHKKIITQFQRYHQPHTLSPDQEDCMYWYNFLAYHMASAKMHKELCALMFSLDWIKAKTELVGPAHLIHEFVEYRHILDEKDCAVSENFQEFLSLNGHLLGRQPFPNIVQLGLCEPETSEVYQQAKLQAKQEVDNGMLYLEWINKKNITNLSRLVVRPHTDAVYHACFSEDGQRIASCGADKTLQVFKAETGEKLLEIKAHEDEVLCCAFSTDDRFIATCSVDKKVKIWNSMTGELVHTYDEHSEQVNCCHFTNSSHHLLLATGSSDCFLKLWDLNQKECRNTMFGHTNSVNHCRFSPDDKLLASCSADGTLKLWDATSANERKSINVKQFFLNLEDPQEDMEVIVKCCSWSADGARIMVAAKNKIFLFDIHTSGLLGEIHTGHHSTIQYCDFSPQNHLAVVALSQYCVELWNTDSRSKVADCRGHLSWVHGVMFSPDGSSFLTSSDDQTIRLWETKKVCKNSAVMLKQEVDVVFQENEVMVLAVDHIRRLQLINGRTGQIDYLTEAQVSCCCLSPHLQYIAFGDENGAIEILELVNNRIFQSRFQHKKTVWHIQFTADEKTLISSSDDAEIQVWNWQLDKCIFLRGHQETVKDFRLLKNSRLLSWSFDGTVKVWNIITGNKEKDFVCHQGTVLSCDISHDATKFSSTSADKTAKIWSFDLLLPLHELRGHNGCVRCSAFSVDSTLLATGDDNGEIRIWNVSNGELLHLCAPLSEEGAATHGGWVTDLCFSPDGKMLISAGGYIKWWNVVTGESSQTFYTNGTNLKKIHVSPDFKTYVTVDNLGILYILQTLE

Row | SMILES | inhibition
1 | CN1CCC(Nc2cccc(F)c2)CC1 | inactive: -8.87%
2 | O=C(NCC1(N2CCCCC2)CCCCC1)c1cncc(Br)c1 | inactive: -5.47%
3 | COc1cc(OC)c(C(=O)NCC2(N(C)C)CCCCC2)cc1OC | inactive: 4.31%
4 | O=C(NCC1(N2CCOCC2)CCCCC1)c1cc(F)c(F)cc1Cl | inactive: -2.42%
5 | COc1ccc(CN(CCCl)CCCl)cc1Cl | inactive: -2%
6 | CN(C)c1cccc(C(=O)NCC2(N3CCCCC3)CCCCC2)c1 | inactive: 4.04%
7 | CC(C)c1ccc(NC2CCN(C(=O)OC(C)(C)C)CC2)cc1 | inactive: 1.4%
8 | CN1CCN(CCOC(=O)C(O)(c2ccccc2)c2ccccc2)CC1 | inactive: -11.4%
9 | COc1ccc(NC2CCN(C(=O)OC(C)(C)C)CC2)cc1 | inactive: 4.13%
10 | CC(C)c1ccc(C(=O)NCC2(N3CCOCC3)CCCCC2)cc1 | inactive: 9.51%
11 | COc1cc(C(=O)NCC2(N3CCCCC3)CCCCC2)ccc1OC(F)F | inactive: 4.05%
12 | O=C(NCC1(N2CCOCC2)CCCCC1)c1cc(=O)[nH]c2ccccc12 | inactive: 5.9%
13 | O=C(NCC1(N2CCCCC2)CCCCC1)c1cccc(C(F)(F)F)c1 | inactive: -2.11%
14 | O=C(NCC1(N2CCCCC2)CCCCC1)c1cccc([N+](=O)[O-])c1 | inactive: -4.04%
15 | CSc1ccc(C(=O)NCC2(N3CCOCC3)CCCCC2)cc1 | inactive: 5.58%
16 | CCN1CCC(Nc2ccc(Cl)cc2)CC1 | inactive: -6.64%
17 | N#CC1(Nc2ccccc2)CCN(CCc2ccccc2)CC1 | inactive: 1.02%
18 | O=C(NCC1(N2CCCCC2)CCCCC1)c1ccc(OC(F)F)cc1 | inactive: 1.26%
19 | CCOC(=O)N1CCC(Nc2cccc(C)c2)CC1 | inactive: -4.77%
20 | Cc1ccc(OCC(C)C)c(CN(CCCl)CCCl)c1 | inactive: -27.1%
21 | CCCCOc1ccc(C(=O)NCC2(N3CCOCC3)CCCCC2)cc1 | inactive: 14.1%
22 | O=C(NCC1(N2CCCCC2)CCCCC1)c1ccc(F)cc1 | inactive: 8.47%
23 | COc1ccc(NC2CCN(CCc3ccccc3)CC2)c(OC)c1 | inactive: 0.323%
24 | CCOC(=O)N1CCC(Nc2ccc(F)cc2)CC1 | inactive: -7.57%
25 | CCOc1ccc(C)cc1CN(CCCl)CCCl | inactive: -19.5%
26 | CCOC(=O)N1CCC(Nc2ccc(OC)cc2)CC1 | inactive: -0.847%
27 | O=C(NCC1(N2CCCCC2)CCCCC1)c1ccc(Cl)s1 | inactive: -5.19%
28 | N#CC1(Nc2ccccc2)CCN(Cc2ccccc2)CC1 | inactive: 30.8%
29 | O=C(OC1CN2CCC1CC2)C1c2ccccc2Oc2ccccc21 (centres undefined) | inactive: -3.03%

Source: PubChem BioAssay AID489030 (Sanford-Burnham Center for Chemical Genomics, 2010)
